Values joined by “and” are separate entries in the source; they are usually repeats but may differ in a detail not shown here. Equal entries are not always repeated.
Target: human plasmin (human) (UniProt P00747)
Assay: cell-based or functional assay

IC50 (nM), inhibition of plasmin activity on chromogenic substrate S2251: 0.48 nM and 0.57 nM
Substance: aprotinin (from UniProt P00974 36-93)
